Laboratory results from paper PMC8958505, “Discovery of Potential Neuroprotective Agents against Paclitaxel-Induced Peripheral Neuropathy” (Journal of Medicinal Chemistry, 2022).
Structures can show the parent of a compound that is named as a salt.

Assays:
[1] = system: paclitaxel-induced neuropathy in C57BL/6 mice; experiment: Tail immersion test (thermal sensation) in paclitaxel-induced neuropathy; assay type: in vivo, mouse
Protocol: (§1) Three behavioral models of paclitaxel-induced neuropathy were used to verify the neuroprotective effect of CN016. Namely, thermal and mechanical nociceptive reactions described below were evaluated by tail immersion and von Frey filament tests, respectively, and motor coordination was assessed with the rotarod performance test (Supporting Information, Figure S1A,B). To mimic the clinical therapeutic regimen, CN016 (5, 10 and 20 mg/kg) was administrated to 7-week-old female C57BL/6 mice by intraperitoneal injection (IP) 1 h prior to each injection of paclitaxel (4.5 mg/kg) on four alternate days (days 1, 3, 5, and 7). Each test’s basal level was recorded before treatment, and additional sessions of behavior tests were performed weekly for five weeks (Figure 4A).
(§2) The baseline of every neurological behavior test was measured in 6-week-old C57BL/6J female mice prior to treatment. […] Mechanical hyperalgesia was evaluated by using von Frey filament (#2390, IITC Inc., USA), thermal sensitivity was determined by the tail immersion assay (water temperature: 48–49 °C), and motor coordination was assessed by rotarod (#7750, Ugo Basile Biological Research Apparatus, Italy). After the first drug implantation, the body weight was recorded every 6 days throughout the entire experiment.

[2] = system: paclitaxel-induced neuropathy in C57BL/6 mice; experiment: von Frey filament test (mechanical) in paclitaxel-induced neuropathy; assay type: in vivo, mouse
Protocol: as §1, §2

[3] = system: proinflammatory cytokines and chemokines; experiment: Systemic mouse cytokine and chemokine detection; assay type: in vivo; details: pretreatment; day 14 after first paclitaxel injection
Protocol: Samples were obtained from C57BL/6J female mice before and 14 days after the first course of treatment. The blood samples were obtained from the submandibular vein and then centrifuged at 3000 rpm for 15 min at 4 °C to yield plasma. Mouse cytokines/chemokines were quantified using Magnetic Bead 32-Multiplex Panel (Millipore, MCYTMAG-70K-PX32). Statistical significance was analyzed using two-way ANOVA, with p < 0.05 considered significant.

ICR mice = experiment: Acute single-dose toxicity study; assay type: in vivo; details: for survival / survival rate: saline
Protocol: An acute single-dose toxicity study was conducted in male ICR mice. 7-week-old ICR male mice were intravenous bolus administered with CN016 dissolved in 0.9% sodium chloride solution by using dose escalation procedure to approach the toxicity of CN016. The treatment groups included 50, 100, 300, and 500 mg/kg dose levels and three to six mice for each group. The injection volume was calculated based on the individual body weight. […] Animal body weight was measured once daily during the 14 day observation period of the study. All animals were euthanized with 100% CO2 at the end of the study.

CYP 1A2 = biological target: T1, CYP 1A2 (Homo sapiens, UniProt P05177); experiment: Cytochrome P450 testing, CYP 1A2; assay type: in vitro ADME; details: phenacetin O-deethylation; read-out: Concentration of inhibition (IC50), CYP 1A2
T1 construct: host or cells: baculovirus-infected insect cells (supersomes)
Description: (§3) Cytochrome P450 testing of CN016
(§4) The effects of CN016 on the activity of six specific human liver cytochrome P450 isozymes (CYP 1A2, 2C9, 2C19, 2D6, 2E1, 3A4) expressed in baculovirus-infected insect cell supersomes were studied. The reactions used to measure the activity of these enzymes were phenacetin O-deethylation (1A2), diclofenac 4-hydroxylation (2C9), mephenytoin 4-hydroxylation (2C19), dextromethorphan O-demethylation (2D6), chlorzoxazone 6-hydroxylation (2E1) and testosterone 6-hydroxylation (3A4).
(§5) Furafylline, sulfaphenazole, tranylcypromine, quinidine, diethyldithiocarbamate and azamulin were used as reference inhibitors of these enzymes. Incubation mixtures containing no CN016 or reference inhibitors were used as controls. The tested result […]
(§6) Table S4. Result of Cytochrome P450 testing of CN016

CYP 3A4 = biological target: T2, CYP 3A4 (Homo sapiens, UniProt P08684); experiment: Cytochrome P450 testing, CYP 3A4; assay type: in vitro ADME; details: testosterone 6-hydroxylation; read-out: Concentration of inhibition (IC50), CYP 3A4
T2 construct: host or cells: baculovirus-infected insect cells (supersomes)
Description: as §3, §4, §5, §6

Adrenergic α1D = Adrenergic α1D (Homo sapiens, UniProt P25100); experiment: LeadProfilingScreen: Adrenergic α1D; assay type: binding
Dopamine D4.4 = Dopamine D4.4 (Homo sapiens, UniProt P21917); experiment: LeadProfilingScreen: Dopamine D4.4; assay type: binding
Endothelin ETB = Endothelin ETB (Homo sapiens, UniProt P24530); experiment: LeadProfilingScreen: Endothelin ETB; assay type: binding
GABAA, Muscimol, Central = experiment: LeadProfilingScreen: GABAA, Muscimol, Central; assay type: binding, rat; details: 10 μM
Glutamate, NMDA, Agonism = experiment: LeadProfilingScreen: Glutamate, NMDA, Agonism; assay type: binding, rat; details: 10 μM
Opiate µ (OP3, MOP) = Opiate µ (OP3, MOP) (Homo sapiens, UniProt P35372); experiment: LeadProfilingScreen: Opiate µ (OP3, MOP); assay type: binding
[4] = biological target: Serotonin (5-Hydroxytryptamine) 5-HT1A (Homo sapiens, UniProt P08908); experiment: LeadProfilingScreen: Serotonin 5-HT1A; assay type: binding
[5] = biological target: Serotonin (5-Hydroxytryptamine) 5-HT2B (Homo sapiens, UniProt P41595); experiment: LeadProfilingScreen: Serotonin 5-HT2B; assay type: binding; details: read-out: Inhibition (%), Serotonin (5-Hydroxytryptamine) 5-HT2B
Description: LeadProfilingScreen (Total # of Assays: 67)
To evaluate, in LeadProfilingScreen, the activity of test compound CN168 (Panlabs # 1251879). […]
Summary of Significant Results
Biochemical assay results are presented as the percent inhibition of specific binding or activity throughout the report.
All other results are expressed in terms of that assay's quantitation method.
• For primary assays, only the lowest concentration with a significant response judged by the assays' criteria, is […]
• Where applicable, either the secondary assay results with the lowest dose/concentration meeting the significance […]
• Unless otherwise requested, primary screening in duplicate with quantitative data (e.g., IC50 ± SEM, Ki ± SEM and nH) are shown where applicable for individual requested assays. In screening packages, primary screening in duplicate with semi-quantitative data (e.g., estimated IC50, Ki and nH) are shown where applicable (concentration range of 4 log units); available secondary functional assays are carried out ([…]) and MEC or MIC determined only if active in primary assays >50% at 1 log unit below initial test concentration. […]

Transporter, GABA = Transporter, GABA (Rattus norvegicus, UniProt P23978); experiment: LeadProfilingScreen: Transporter, GABA; assay type: binding
[6] = biological target: Transporter, Norepinephrine (NET) (Homo sapiens, UniProt P23975); experiment: LeadProfilingScreen: Transporter, Norepinephrine (NET); assay type: binding
[7] = CN016 5 mg/kg IP 1 h prior to paclitaxel 4.5 mg/kg

## O=P(O)(O)CCN1CCC(Nc2cc(N3CCOCC3)nc(NCc3cn(CCCO)nn3)n2)CC1 [CN016, {2-[4-(2-{[1-(3-Hydroxy-propyl)-1H-[1,2,3]triazol-4-ylmethyl]-amino}-6-morpholin-4-yl-pyrimidin-4-ylamino)-piperidin-1-yl]-ethyl}-phosphonic Acid Hydrobromide Salt]
[1]; [7]
  alleviation of thermal insensitivity (tail immersion): only moderately alleviated
[1]; CN016 10 or 20 mg/kg IP 1 h prior to paclitaxel 4.5 mg/kg, days 1, 3, 5, 7
  alleviation of paclitaxel-induced thermhypesthesia (tail immersion): able to alleviate
[2]; [7]
  alleviation of mechanical allodynia (von Frey): only moderately alleviated
[2]; CN016 10 or 20 mg/kg IP 1 h prior to paclitaxel 4.5 mg/kg
  alleviation of paclitaxel-induced mechanical allodynia (von Frey): able to alleviate
[3]
  proinflammatory cytokines and chemokines in plasma: significant decrease
ICR mice; 50 mg/kg IV
  survival: 3/3
  survival rate: 100%
ICR mice; 100 mg/kg IV
  survival: 6/6
  survival rate: 100%
ICR mice; 300 mg/kg IV
  survival: 3/3
  survival rate: 100%
ICR mice; 500 mg/kg IV
  survival: 3/3
  survival rate: 100%
ICR mice; intravenous, ICR mice
  maximum tolerance dose (MTD): > 500 mg/kg
CYP 1A2
  IC50: > 100 µM
CYP 3A4
  IC50: > 100 µM
Adrenergic α1D
  inhibition at 10 µM: -6%
Dopamine D4.4
  inhibition at 10 µM: 12%
Endothelin ETB
  inhibition at 10 µM: -1%
GABAA, Muscimol, Central
  Inhibition (%), GABAA, Muscimol, Central: 5%
Glutamate, NMDA, Agonism
  Inhibition (%), Glutamate, NMDA, Agonism: -3%
Opiate µ (OP3, MOP)
  inhibition at 10 µM: 1%
[4]
  inhibition at 10 µM: 2%
[5]
  inhibition at 10 µM: 10%
Transporter, GABA
  inhibition at 10 µM: 2%
[6]
  inhibition at 10 µM: -1%
